Assay results taken from patent US6440935B1, “Inhibition of eucaryotic pathogens and neoplasms and stimulation of fibroblasts and lymphocytes with lytic peptides” (priority 1987, dated 2002).

Test system: E. coli E/2/64
Test: Lysozyme/cecropin synergism against E. coli (plate growth)
Details: 10 μg, 1 mg, and 10 mg per milliliter; 10^−1 and 10^−3 dilutions

Lysozyme
growth of E. coli: positive growth of E. coli
